# Experimental data taken from PubChem BioAssay (NCATS).
# By UniProt entry, the sequences of proteins in these tests, tags left out.
# UniProt P08684, whole entry: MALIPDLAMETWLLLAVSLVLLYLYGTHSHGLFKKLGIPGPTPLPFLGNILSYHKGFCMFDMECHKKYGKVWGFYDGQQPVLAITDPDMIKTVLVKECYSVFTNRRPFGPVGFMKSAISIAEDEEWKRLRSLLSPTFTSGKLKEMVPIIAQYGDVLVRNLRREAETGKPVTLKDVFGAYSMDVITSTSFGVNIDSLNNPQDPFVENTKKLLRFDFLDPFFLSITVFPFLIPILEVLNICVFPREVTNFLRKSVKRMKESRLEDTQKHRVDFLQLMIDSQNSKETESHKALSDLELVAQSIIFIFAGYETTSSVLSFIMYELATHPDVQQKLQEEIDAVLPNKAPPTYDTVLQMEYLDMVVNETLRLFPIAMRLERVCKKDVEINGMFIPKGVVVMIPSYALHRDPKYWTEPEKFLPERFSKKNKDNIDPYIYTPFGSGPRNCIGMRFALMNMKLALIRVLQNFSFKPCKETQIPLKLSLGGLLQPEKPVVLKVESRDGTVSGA
# UniProt P10635, whole entry: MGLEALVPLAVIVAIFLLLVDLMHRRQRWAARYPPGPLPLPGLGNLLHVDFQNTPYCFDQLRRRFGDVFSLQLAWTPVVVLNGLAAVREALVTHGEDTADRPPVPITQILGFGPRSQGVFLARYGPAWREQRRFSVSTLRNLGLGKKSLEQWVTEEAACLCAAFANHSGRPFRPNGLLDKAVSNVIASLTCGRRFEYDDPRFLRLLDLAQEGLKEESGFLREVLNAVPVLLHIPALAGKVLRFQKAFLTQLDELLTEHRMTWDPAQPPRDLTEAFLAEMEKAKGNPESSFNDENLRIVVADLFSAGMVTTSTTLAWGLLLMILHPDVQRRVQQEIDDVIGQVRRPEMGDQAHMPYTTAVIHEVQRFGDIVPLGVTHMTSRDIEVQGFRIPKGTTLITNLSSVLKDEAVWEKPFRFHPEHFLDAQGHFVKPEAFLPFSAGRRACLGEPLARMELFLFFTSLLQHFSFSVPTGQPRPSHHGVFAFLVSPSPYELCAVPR
# UniProt P33261, whole entry: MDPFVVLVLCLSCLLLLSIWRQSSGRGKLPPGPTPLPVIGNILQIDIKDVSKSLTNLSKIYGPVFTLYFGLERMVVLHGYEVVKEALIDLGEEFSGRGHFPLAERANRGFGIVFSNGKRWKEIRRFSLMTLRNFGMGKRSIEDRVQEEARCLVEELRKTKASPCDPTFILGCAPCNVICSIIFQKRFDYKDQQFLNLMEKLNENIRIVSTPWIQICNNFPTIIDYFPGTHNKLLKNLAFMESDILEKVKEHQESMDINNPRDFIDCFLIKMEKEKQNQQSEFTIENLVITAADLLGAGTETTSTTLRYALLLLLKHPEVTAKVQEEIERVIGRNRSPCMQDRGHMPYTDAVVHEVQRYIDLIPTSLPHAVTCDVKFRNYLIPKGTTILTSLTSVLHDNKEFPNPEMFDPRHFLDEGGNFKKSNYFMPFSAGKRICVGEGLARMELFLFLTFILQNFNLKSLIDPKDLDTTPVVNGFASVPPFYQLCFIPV
# UniProt P05177, whole entry: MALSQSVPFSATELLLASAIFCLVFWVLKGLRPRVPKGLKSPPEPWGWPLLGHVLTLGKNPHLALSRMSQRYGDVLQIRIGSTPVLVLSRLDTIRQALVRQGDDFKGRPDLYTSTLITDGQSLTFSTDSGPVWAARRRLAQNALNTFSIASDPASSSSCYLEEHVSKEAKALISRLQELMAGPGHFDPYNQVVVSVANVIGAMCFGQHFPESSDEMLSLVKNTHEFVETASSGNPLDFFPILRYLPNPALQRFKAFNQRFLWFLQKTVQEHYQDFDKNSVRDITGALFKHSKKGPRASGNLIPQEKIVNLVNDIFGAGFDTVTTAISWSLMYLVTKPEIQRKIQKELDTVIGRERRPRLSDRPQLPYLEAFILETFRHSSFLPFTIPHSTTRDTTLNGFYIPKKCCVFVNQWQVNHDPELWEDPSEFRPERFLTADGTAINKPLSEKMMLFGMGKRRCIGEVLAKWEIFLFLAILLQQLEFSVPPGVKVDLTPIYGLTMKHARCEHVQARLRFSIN
# This is a selection; strong and weak results do not stand in their true shares. Inconclusive results are not listed. Activity calls are given as the source filed them. Calls follow the shape of the dose curve; as a rule, active = well fitted curve in the direction sought with a large enough effect; inconclusive = small, poorly fitted or top-dose-only effect, or another doubt; inactive = no such curve, though single readings can be large; an effect the other way counts as inactive or inconclusive.
# Tests used:
# [1] = biological target: Cytochrome P450 3A4 (Homo sapiens) (UniProt P08684); experiment: qHTS for inhibitors of CYP3A4 against the NCATS DSHEA and TCM libraries (AID 1919971); details: recombinant CYP3A4 enzyme activity, luminescence qHTS; at 34.1 µM (top of the series);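 also: % is scaled to controls: 0 for no effect and ±100 for the full control effect; inhibition lowers luminescence from luciferin made by CYP3A4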
# Summary of the method: (§1)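 Isoform-specific enzyme and substrate levels; enzyme-free wells as background. Reaction: 1x NADPH regenerating system, 30-45 min, room temperature, shielded from light; luminescent detection reagent added, 30 min.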
# [2] = biological target: Cytochrome P450 2D6 (Homo sapiens) (UniProt P10635); experiment: qHTS for inhibitors of CYP2D6 against the NCATS DSHEA and TCM libraries (AID 1919972); details: CYP2D6 enzymatic inhibition, luminescence qHTS; at 34.1 µM (top of the series); also: % is scaled to controls: 0 for no effect and ±100 for the full control effect
# Summary of the method: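 qHTS, concentration–response format with most substances from 19.5 nM. CYP2D6 + pro-luciferin substrate, 15 min with compound, then 1x NADPH regen, 30–45 min RT dark. Glo detection 30 min, luminescence. Quinidine control.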
# [3] = biological target: Cytochrome P450 2C19 (Homo sapiens) (UniProt P33261); experiment: qHTS for inhibitors of CYP2C19 against the NCATS DSHEA and TCM libraries (AID 1919974); details: CYP2C19 enzyme inhibition, luminescence qHTS;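 also: luminescence from luciferin released by CYP2C19 oxidation of a pro-luciferin substrate; potency is read from the fitted curve at half-maximal effect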
# Summary of the method: as §1
# [4] = KB-3-1 P-gp reporter qHTS against the NCATS DSHEA and TCM libraries (AID 1919975); details: KB-3-1 cells, P-gp reporter signal; at 26.1 µM (top of the series); also: 0% is about no effect
# Summary of the method: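 72 h exposure of KB-3-1 cells (DMEM, 10% FBS) to DSHEA/TCM samples, concentration-response; cell viability measured as CellTiter-Glo luminescence after 30 min at room temperature.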
# [5] = biological target: Cytochrome P450 1A2 (Homo sapiens) (UniProt P05177); experiment: qHTS for inhibitors of CYPIA2 against the NCATS DSHEA and TCM libraries (AID 1919976); details: recombinant CYP1A2 enzyme activity, luminescence; also: potency is read from the fitted curve at half-maximal effect
# Summary of the method: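 Furafylline served as the plate control. Compounds met CYP1A2 and pro-luciferin substrate 15 min before NADPH regeneration solution (1x) was added; after 30-45 min at RT, P450-Glo reagent was added for 30 min and luminescence was measured.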
# [6] = KB-8-5-11 P-gp reporter qHTS against the NCATS DSHEA and TCM libraries (AID 1919977); details: KB-8-5-11 cells; at 26.1 µM (top of the series); also: 0% is about no effect
# Summary of the method: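 Cells were seeded, allowed ~4 h to attach, dosed by pin tool (substance titrations), incubated ~72 h at 37C, then lysed with CellTiter-Glo for 30 min at room temperature before luminescence reading.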
# [7] = Dual reporter qHTS for agonist of Pregnane X Receptor (hPXR) against the NCATS DSHEA and TCM libraries: Fluorescence readout (AID 1920058); details: PXR dual reporter cells; at 40 µM (top of the series); also: 0% is about no effect
# Summary of the method: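 In this qHTS counter-read, reporter-bearing HepG2 cells in charcoal-stripped serum received substances for approximately 24 h before viability was assessed fluorometrically with CellTiter-Fluor.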
# [8] = Quantitative High-Throughput drug screen in 47 multiple myeloma cell lines against the NCATS MIPE library collection: KMS21BM_JCRB cell viability assay (AID 1918974); details: ATP luminescence, 48 h; at 23.2 µM (top of the series)
# Summary of the method: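 qHTS of the MIPE 4.0 collection: 500 myeloma cells/well, 48 h drug exposure at 37C in 5% CO2, then CellTiter-Glo for 5 min at room temperature before luminescence reading.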
# [9] = Quantitative High-Throughput drug screen in 47 multiple myeloma cell lines against the NCATS MIPE library collection: KMS26_JCRB cell viability assay (AID 1918975); details: KMS26 myeloma cells viability, CellTiter-Glo ATP, 48 h; also: potency is read from the fitted curve at half-maximal effect; nearly all actives have a fitted effect of over 45% in size
# Summary of the method: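 Luminescent ATP measurement with CellTiter-Glo gives viability, scaled between DMSO-only wells (100%) and media-only wells (0%). Cells, 500 per well, faced library compounds for 48 hours at 37C.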
# [10] = Quantitative High-Throughput drug screen in 47 multiple myeloma cell lines against the NCATS MIPE library collection: MMM1_PLB cell viability assay (AID 1918976); details: MM.1S-type MMM1 myeloma cells viability, CellTiter-Glo, 48 h; also: potency is read from the fitted curve at half-maximal effect; nearly all actives have a fitted effect of over 35% in size
# Summary of the method: (§2)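 500 cells/well; MIPE 4.0 drugs pin-transferred; 48 h, 37C, 5% CO2. CellTiter-Glo, 5 min RT, luminescence. Controls: DMSO 100%, media 0%.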
# [11] = Quantitative High-Throughput drug screen in 47 multiple myeloma cell lines against the NCATS MIPE library collection: NCIH929_DSMZ cell viability assay (AID 1918978); details: NCI-H929 myeloma viability, CellTiter-Glo ATP, 48 h; also: potency is read from the fitted curve at half-maximal effect; nearly all actives have a fitted effect of over 35% in size
# Summary of the method: as §2
# [12] = Quantitative High-Throughput drug screen in 47 multiple myeloma cell lines against the NCATS MIPE library collection: OCIMY1_PLB cell viability assay (AID 1918979); details: OCI-MY1 myeloma viability, CellTiter-Glo ATP, 48 h; at 23.2 µM (top of the series); also: nearly all actives have a fitted effect of over 35% in size
# Summary of the method: as §2
# [13] = Quantitative High-Throughput drug screen in 47 multiple myeloma cell lines against the NCATS MIPE library collection: KMS28PE_JCRB cell viability assay (AID 1918983); details: KMS28PE multiple myeloma viability, CellTiter-Glo ATP, 48 h; also: potency is read from the fitted curve at half-maximal effect; nearly all actives have a fitted effect of over 35% in size
# Summary of the method: as §2
# [14] = Quantitative High-Throughput drug screen in 47 multiple myeloma cell lines against the NCATS MIPE library collection: L363_DSMZ cell viability assay (AID 1918984); details: L363 myeloma viability, CellTiter-Glo ATP luminescence, 48 h; at 23.2 µM (top of the series); also: nearly all actives have a fitted effect of over 40% in size
# Summary of the method: as §2
# [15] = Quantitative High-Throughput drug screen in 47 multiple myeloma cell lines against the NCATS MIPE library collection: OPM1_PLB cell viability assay (AID 1918989); details: CellTiter-Glo, 48 h; at 23.2 µM (top of the series); also: nearly all actives have a fitted effect of over 40% in size
# Summary of the method: as §2
# [16] = Quantitative High-Throughput drug screen in 47 multiple myeloma cell lines against the NCATS MIPE library collection: SKMM1_PLB cell viability assay (AID 1919863); details: SKMM1 myeloma viability, CellTiter-Glo ATP, 48 h; stronger effect = lower value; also: nearly all actives have a fitted effect of over 35% in size
# Summary of the method: as §2
# [17] = Quantitative High-Throughput drug screen in 47 multiple myeloma cell lines against the NCATS MIPE library collection: U266_ATCC cell viability assay (AID 1919864); details: U266 myeloma viability, CellTiter-Glo ATP luminescence, 48 h; at 23.2 µM (top of the series); also: nearly all actives have a fitted effect of over 35% in size
# Summary of the method: as §2
# [18] = Quantitative High-Throughput drug screen in 47 multiple myeloma cell lines against the NCATS MIPE library collection: XG6_PLB cell viability assay (AID 1919865); details: XG6 myeloma viability, CellTiter-Glo ATP luminescence, 48 h; also: potency is read from the fitted curve at half-maximal effect; nearly all actives have a fitted effect of over 40% in size
# Summary of the method: as §2
# [19] = Quantitative High-Throughput drug screen in 47 multiple myeloma cell lines against the NCATS MIPE library collection: VP6_DJ cell viability assay (AID 1919867); details: ATP luminescence, 48 h; at 23.2 µM (top of the series); also: nearly all actives have a fitted effect of over 40% in size
# Summary of the method: as §2
# [20] = Quantitative High-Throughput drug screen in 47 multiple myeloma cell lines against the NCATS MIPE library collection: RPMI8226_ATCC cell viability assay (AID 1919871); details: RPMI8226 myeloma viability, CellTiter-Glo ATP luminescence, 48 h; at 23.2 µM (top of the series); also: nearly all actives have a fitted effect of over 30% in size
# Summary of the method: as §2
Structure (SMILES),"activity change, negative = inhibition [1]","activity change, negative = inhibition [2]",Potency [3],"activity change, negative = inhibition [4]",Potency [5],"activity change, negative = inhibition [6]",activation [7],viability [8],Potency [9],Potency [10],Potency [11],viability [12],Potency [13],viability (% of control) [14],viability (% of control) [15],viability [16],viability (% of DMSO control) [17],Potency [18],viability (% of DMSO) [19],viability (% of control) [20]
C/C1=C2N=C(/C=C3N=C(/C(C)=C4\[N-][C@@](C)([C@@H]5N=C1[C@](C)(CCC(=O)NC[C@@H](C)OP(=O)([O-])O[C@H]1[C@@H](O)[C@@H](n6cnc7cc(C)c(C)cc76)O[C@@H]1CO)[C@H]5CC(N)=O)[C@@](C)(CC(N)=O)[C@@H]4CCC(N)=O)[C@@](C)(CC(N)=O)[C@@H]\3CCC(N)=O)C(C)(C)[C@@H]/2CCC(N)=O.[C-]#N.[Co+3],inactive: -44.5%,inactive: -19.4%,active: 3.16 µM,inactive: -25%,active: 3.55 µM,inactive: -16.1%,inactive: -21.8%,–,–,–,–,–,–,–,–,–,–,–,–,–
CC1=C2[N-][C@@](C)([C@@H]3N=C(C(C)=C4N=C(C=C5N=C1[C@@](C)(CC(N)=O)[C@H]5CCC(N)=O)C(C)(C)[C@H]4CCC(N)=O)[C@](C)(CCC(=O)NC[C@@H](C)OP(=O)([O-])O[C@H]1[C@@H](O)[C@@H](n4cnc5cc(C)c(C)cc54)O[C@H]1CO)[C@H]3CC(N)=O)[C@@](C)(CC(N)=O)[C@@H]2CCC(N)=O.[C-]#N.[Co+3],–,–,–,–,–,–,–,inactive: 165%,active: 0.204 µM,active: 0.724 µM,active: 7.24 µM,inactive: 87.5%,active: 6.45 µM,inactive: 124%,inactive: 105%,inactive: 98.9%,inactive: 106%,active: 7.24 µM,inactive: 103%,inactive: 88.7%
